In patent publication US20080051429A1, “USE OF 4-AMINO-PIPERIDINES FOR TREATING SLEEP DISORDERS” (priority 2006, published 2008):
Structures can show the parent of a compound that is named as a salt.

Sequences of proteins named here, by UniProt entry; tags and fusion partners are left off.
UniProt P28223, whole entry: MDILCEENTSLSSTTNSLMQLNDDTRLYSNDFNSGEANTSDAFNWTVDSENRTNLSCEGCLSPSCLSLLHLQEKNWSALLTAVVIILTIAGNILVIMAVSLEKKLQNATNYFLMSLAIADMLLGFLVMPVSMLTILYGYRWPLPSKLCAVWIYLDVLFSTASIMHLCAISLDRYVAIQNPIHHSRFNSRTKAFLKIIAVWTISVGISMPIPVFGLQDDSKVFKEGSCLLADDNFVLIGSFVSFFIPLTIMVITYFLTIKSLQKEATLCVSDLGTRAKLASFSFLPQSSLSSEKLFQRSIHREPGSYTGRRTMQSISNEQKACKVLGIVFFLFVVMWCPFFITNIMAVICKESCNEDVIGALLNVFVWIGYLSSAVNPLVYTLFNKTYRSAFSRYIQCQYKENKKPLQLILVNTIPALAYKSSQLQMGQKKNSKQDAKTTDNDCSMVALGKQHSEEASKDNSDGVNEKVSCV

Molecular target: T1, 5-HT2A receptor (Homo sapiens, UniProt P28223)
T1 construct: expressed in transfected cells; host or cells: NIH3T3 cells, pSI expression vector
Test: R-SAT functional receptor assay
Assay type: cell-based
Procedure: The functional receptor assay, Receptor Selection and Amplification Technology (R-SAT), was used (with minor modifications from that previously described U.S. Pat. No. 5,707,798) to screen compounds for efficacy at the 5-HT2A receptor. Briefly, NIH3T3 cells were grown in 96 well tissue culture plates to 70-80% confluence. Cells were transfected for 12-16 hours with plasmid DNAs using superfect (Qiagen Inc.) as per manufacture's protocols. R-SAT's were generally performed with 50 ng/well of receptor and 20 ng/well of Beta-galactosidase plasmid DNA. All receptor and G-protein constructs used were in the pSI mammalian expression vector (Promega Inc) as described in U.S. Pat. No. 5,707,798. The 5HT2A receptor gene was amplified by nested PCR from brain cDNA using the oligodeoxynucleotides based on the published sequence (see Saltzman et. al. Biochem. Biophys. Res. Comm. 181:1469-78 (1991)). Large-scale transfections, cells were transfected for 12-16 hours, then trypsinized and frozen in DMSO. […] Media was then removed from the plates and marker gene activity was measured by the addition of the beta-galactosidase substrate ONPG (in PBS with 5% NP-40). The resulting colorimetric reaction was measured in a spectrophotometric plate reader (Titertek Inc.)at […]. All data were analyzed using the computer program XLFit (IDBSm). […]

Work on `CC(C)COc1ccc(CC(=O)N(Cc2ccc(F)cc2)C2CCN(CCC3OCCCO3)CC2)cc1` [Example 103NLS63-F, N-{1-[2-(1,3-Dioxan-2-yl)ethyl]piperidin-4-yl}-N-(4-fluorobenzyl)-2-(4-isobutoxyphenyl)acetamide, oxalate] yielded an Emax (120 h, read-out: 5HT2A % INH) of 101% and an IC50 (read-out: 5HT2A pIC50 (converted)) of 316 pM.
